From US11447485B2, “Class of bifunctional compounds with quanternary ammonium salt structure” (Beijing Showby Pharmaceutical Co., Ltd., priority 2016, dated 2022) come the findings set out here.

Protein sequences, listed by entry. Tags and fused reporters are not part of them.
UniProt P08588, whole entry: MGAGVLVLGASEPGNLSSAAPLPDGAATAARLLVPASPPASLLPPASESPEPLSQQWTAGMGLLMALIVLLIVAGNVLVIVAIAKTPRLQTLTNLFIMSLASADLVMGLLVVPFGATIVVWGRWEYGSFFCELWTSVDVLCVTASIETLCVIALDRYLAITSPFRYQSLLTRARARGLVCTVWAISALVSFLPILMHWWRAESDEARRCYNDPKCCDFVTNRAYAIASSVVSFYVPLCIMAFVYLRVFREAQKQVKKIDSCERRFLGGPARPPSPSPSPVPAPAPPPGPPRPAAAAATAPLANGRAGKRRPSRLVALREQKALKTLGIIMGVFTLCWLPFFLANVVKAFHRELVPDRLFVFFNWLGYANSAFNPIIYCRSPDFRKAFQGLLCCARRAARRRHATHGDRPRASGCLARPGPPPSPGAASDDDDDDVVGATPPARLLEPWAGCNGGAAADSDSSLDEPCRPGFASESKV
UniProt P11229, whole entry: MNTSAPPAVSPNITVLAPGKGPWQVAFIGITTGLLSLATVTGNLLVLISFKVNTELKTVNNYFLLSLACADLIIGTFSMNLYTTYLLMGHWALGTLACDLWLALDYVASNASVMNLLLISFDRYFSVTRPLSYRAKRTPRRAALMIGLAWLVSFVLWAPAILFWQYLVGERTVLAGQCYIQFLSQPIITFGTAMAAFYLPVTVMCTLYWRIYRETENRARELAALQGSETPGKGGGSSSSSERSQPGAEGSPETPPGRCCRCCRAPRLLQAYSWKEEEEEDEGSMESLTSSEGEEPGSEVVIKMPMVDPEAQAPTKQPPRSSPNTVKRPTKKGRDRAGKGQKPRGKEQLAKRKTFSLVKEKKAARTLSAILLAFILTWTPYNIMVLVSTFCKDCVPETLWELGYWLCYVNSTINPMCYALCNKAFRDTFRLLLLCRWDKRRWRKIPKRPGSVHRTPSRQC
UniProt P08172, whole entry: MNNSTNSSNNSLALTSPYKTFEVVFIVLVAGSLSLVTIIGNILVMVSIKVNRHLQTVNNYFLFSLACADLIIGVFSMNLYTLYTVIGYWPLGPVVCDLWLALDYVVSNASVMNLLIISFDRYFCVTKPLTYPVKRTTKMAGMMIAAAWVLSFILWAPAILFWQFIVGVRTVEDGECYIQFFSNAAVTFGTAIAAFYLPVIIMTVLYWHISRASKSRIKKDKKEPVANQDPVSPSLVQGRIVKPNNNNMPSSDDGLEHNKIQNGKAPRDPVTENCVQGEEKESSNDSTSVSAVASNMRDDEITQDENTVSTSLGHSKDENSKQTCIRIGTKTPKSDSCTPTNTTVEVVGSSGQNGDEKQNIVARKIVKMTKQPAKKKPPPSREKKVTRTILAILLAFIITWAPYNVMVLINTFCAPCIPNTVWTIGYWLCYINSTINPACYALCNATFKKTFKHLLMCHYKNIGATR
UniProt P20309, whole entry: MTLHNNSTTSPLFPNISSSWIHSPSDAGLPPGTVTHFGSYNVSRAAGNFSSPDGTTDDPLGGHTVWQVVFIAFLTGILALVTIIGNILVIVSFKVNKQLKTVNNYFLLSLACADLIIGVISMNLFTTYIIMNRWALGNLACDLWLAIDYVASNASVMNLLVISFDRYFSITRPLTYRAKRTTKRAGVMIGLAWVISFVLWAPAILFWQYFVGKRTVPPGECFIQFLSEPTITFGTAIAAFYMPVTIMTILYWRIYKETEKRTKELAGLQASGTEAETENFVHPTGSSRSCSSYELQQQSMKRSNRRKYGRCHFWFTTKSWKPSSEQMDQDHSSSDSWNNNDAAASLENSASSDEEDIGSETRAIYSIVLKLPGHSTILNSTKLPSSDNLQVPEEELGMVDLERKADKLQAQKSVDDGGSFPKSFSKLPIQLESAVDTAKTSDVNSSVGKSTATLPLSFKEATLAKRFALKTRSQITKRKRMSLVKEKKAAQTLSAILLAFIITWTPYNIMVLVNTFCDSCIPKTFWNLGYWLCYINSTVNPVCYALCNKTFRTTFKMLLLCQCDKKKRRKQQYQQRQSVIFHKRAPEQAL

Structures are written as SMILES.

Assay [1] addresses human recombinant β1 adrenoceptor (Homo sapiens, UniProt P08588). The assay can be described thus: cAMP accumulation, human recombinant β1 adrenoceptor. The format is cell-based. The conditions noted are these: read-out: EC50 (β1) nM, 10 nM ICI118551 added, HEK293 cells, tested form: Br. In general terms: cAMP levels reflect the balance of adenylyl cyclase and phosphodiesterase activity.

In assay [2] the target is human recombinant M1 receptor (Homo sapiens, UniProt P11229). The assay can be described thus: [3H]-QNB competitive binding, CHOm1 cell membranes. As to conditions: tested form: Br.
In assay [3] the test system is tracheal smooth muscle of guinea pig. The assay can be described thus: Relaxation of CCh-induced constriction of isolated guinea pig tracheal smooth muscle (Experimental Example 1). The conditions noted are these: in vitro, tested form: Br.
In assay [4] the target is human recombinant M2 receptor (Homo sapiens, UniProt P08172). The assay can be described thus: [3H]-QNB competitive binding, CHOm2 cell membranes. The conditions noted are these: read-out: hM2Ki; 3H-QNB 1.81 nmol/L, 25° C., 5 h; tested form: Br.
The target in assay [5] is human recombinant β2 adrenoceptor (Homo sapiens, UniProt P07550). The assay can be described thus: cAMP accumulation, human recombinant β2 adrenoceptor. The assay is classed as cell-based. As to conditions: tested form: Br.
Assay [6] deals with human recombinant M3 receptor (Homo sapiens, UniProt P20309). The assay can be described thus: [3H]-QNB competitive binding, CHOm3 cell membranes. As to conditions: tested form: Br.

What is called EC50 is the concentration giving half of the maximal effect.

Turning to `O=C1COc2c(cc(O)cc2C(O)CNCCOc2ccc(OCC[N+]34CCC(CC3)C(OCC(O)(c3ccccc3)C3CCCC3)C4)cc2)N1` (stereo not drawn), the EC50 turned out to be 12 nM in assay [1]; 0.0379 µM in assay [3] (read-out: EC50 (μM) ± SD, constriction induced by CCh 3 × 10^−6 mol/L); 1.2 nM in assay [5] (read-out: EC50 (β2) nM, cAMP accumulation). Also, the M1/M2 in assay [2] (Mx/My = Ki(y)/Ki(x)) is 0.9849. The Ki in assay [2] (read-out: hM1Ki, 3H-QNB 1.042 nmol/L, 25° C., 5 h) was found to be 1.32 nM; in assay [4], 1.3 nM; in assay [6] (read-out: hM3Ki, 3H-QNB 1.042 nmol/L, 25° C., 5 h), 0.635 nM. Further, the “Onset time (min) ± SD” value in assay [3] (CCh 3 × 10^−6 mol/L) is 6.85 ± 0.35 min. Further, the “Time for eliminating inhibition effect (min)” value in assay [3] (CCh 3 × 10^−6 mol/L) is listed as “more than 300 min”. In addition, the “sel (β1/β2)” value in assay [5] stood at 9.8. In addition, the M1/M3 in assay [6] (Mx/My = Ki(y)/Ki(x)) worked out at 0.4803. The M2/M3 in assay [6] (Mx/My = Ki(y)/Ki(x)) is 0.4877.
